{
  "source": "patent US7745604B2",
  "about": "“Upstream control elements of the proopiomelanocortin gene and their use” (Oregon Health & Science University, priority 2001, dated 2010)",
  "key": {"[1]": {"test_system": "c-fos expression in the arcuate nucleus", "assay": "c-fos expression in the lateral arcuate after IP injection, rat", "assay_type": "in vivo", "conditions": "single IP injection, n=3, P<0.0001"}, "[2]": {"test_system": "c-fos expression in the arcuate nucleus", "assay": "c-fos expression in arcuate nucleus of Pomc-EGFP mice after IP injection", "assay_type": "in vivo, mouse", "conditions": "IP 5 μg/100 g, 2 hours, n=5, P<0.006", "source_text": "Data were obtained from 5 mice in each group. For the Pomc-EGFP mice 5 anatomically matched arcuate nucleus sections (Franklin et al., The Mouse Brain in Stereotaxic Coordinates (Academic Press, San Diego, 1997) were counted from each animal, and images acquired using a Leica TSC confocal microscope (Grove et al., Neuroscience 100:731-40, 2000)."}, "POMC neurons": {"test_system": "POMC neurons", "assay": "Whole cell recordings of membrane potential of EGFP-labeled POMC neurons in ARC slices", "assay_type": "cell-based, mouse", "conditions": "PYY3-36 (10 nM per FIG. 6a), n=22, P<0.0003"}},
  "data": [
    {"substance": "PYY3-36", "values": [
      {"measurement": "number of cells positive for c-fos", "setting": "[1]", "value": "168±2"},
      {"measurement": "proportion of POMC neurons that express c-fos", "setting": "[2]", "value": "20.4±2.9", "unit": "%"},
      {"measurement": "depolarization of POMC neurons", "setting": "POMC neurons", "value": "10.3±2.1", "unit": "mV"}
    ]}
  ]
}
